Data as given in patent US5952351A, “Alpha 1a adrenergic receptor antagonists” (dated 1999).
pIC50: −log10 of the molar value.

Amino acid sequences for entries named in this document (tags omitted).
UniProt P41144, whole entry: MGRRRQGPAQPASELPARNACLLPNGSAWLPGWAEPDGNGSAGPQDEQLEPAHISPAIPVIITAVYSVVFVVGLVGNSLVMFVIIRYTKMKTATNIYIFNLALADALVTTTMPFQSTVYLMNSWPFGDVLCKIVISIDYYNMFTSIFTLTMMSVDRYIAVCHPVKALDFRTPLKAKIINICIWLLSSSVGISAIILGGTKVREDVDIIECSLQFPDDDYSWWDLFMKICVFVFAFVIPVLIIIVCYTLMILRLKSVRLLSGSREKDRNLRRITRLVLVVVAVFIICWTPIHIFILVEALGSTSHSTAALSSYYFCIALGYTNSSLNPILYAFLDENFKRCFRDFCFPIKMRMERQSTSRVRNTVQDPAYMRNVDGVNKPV
UniProt P33533, whole entry: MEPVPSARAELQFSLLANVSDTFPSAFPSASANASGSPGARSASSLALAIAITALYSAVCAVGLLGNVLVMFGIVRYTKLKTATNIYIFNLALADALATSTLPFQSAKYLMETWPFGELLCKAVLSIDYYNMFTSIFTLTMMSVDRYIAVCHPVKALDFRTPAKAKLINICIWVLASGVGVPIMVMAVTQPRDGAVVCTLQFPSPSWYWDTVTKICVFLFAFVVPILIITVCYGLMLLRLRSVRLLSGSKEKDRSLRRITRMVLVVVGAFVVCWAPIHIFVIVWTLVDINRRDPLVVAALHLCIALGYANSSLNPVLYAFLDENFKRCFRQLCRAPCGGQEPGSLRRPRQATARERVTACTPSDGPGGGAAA
UniProt P33535, whole entry: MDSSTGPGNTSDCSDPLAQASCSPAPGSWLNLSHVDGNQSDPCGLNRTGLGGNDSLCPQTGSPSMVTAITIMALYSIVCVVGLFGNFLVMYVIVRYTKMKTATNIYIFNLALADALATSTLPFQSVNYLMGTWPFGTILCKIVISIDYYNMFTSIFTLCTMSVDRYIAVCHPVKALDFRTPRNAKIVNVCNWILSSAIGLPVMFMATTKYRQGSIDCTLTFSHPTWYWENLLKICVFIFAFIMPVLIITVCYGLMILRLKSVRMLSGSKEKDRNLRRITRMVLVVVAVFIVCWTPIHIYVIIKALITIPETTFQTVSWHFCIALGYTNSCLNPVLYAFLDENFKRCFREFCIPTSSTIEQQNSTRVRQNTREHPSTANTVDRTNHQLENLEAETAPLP

Tests used:
kappa opioid receptor = kappa opioid receptor (Cavia porcellus, UniProt P41144); experiment: Radioligand binding assay for opioid receptor subtypes, 3H-U69593; details: read-out: IC50 3H-U69593 (kappa); guinea pig brain, 3H-U69593 5 nM, 25° C., 1 hour
Protocol: (§1) Radioligand binding assays for opioid receptor subtypes
(§2) Opioid mu and delta receptor binding assays were performed with rat brain membranes using ^3 H-DAMGO ([D-Ala^2, Me-Phe^4, Gly-ol^5 ]enkephalin, 1 nM) and ^3 H-DPDPE ([D-Pen^2, D-Pen^5 ]enkephalin, 3 nM) as the selective radioligand, respectively (Slater and Cross, 1991, Methods in Neurosciences ed. P.M. Conn. Academic Press, vol. 5 pp.459-478). Kappa receptor binding assays were performed with guinea pig brain membranes using ^3 H-U69593 (5 alpha, 7 alpha, 8 beta)-(+)-N-Methyl-N-[7-(1-pyrrolinyl)-1-oxaspiro[4,5]dec-8-yl]benzene-acetamide, 5 nM) as the radioligand. Brain membrane preparation and radioligand binding assays were performed similarly to those for ^3 H-naloxone binding assay with the exception as noted below. Some protease inhibitors (bacitracin 20 μg/ml, soybean trypsin inhibitor 50 μg/ml and leupeptin 10 μg/ml) were added to the binding assay buffer for ^3 H-DAMGO and ^3 H-DPDPE binding assays. Binding assays were carried out at 25° C. for 1 hour (^3 H-DAMGO and ^3 H-U69593) and 3 hours (^3 H-DPDPE). Nonspecific binding was determined in the presence of 1 μM of naloxone. The selectivity of representative compounds of the present invention on opioid receptor subtypes are shown below in Table 7.

delta opioid receptor = delta opioid receptor (Rattus norvegicus, UniProt P33533); experiment: Radioligand binding assay for opioid receptor subtypes, 3H-DPDPE; details: read-out: IC50 3H-DPDPE (delta), rat brain, 3H-DPDPE 3 nM, 25° C.
Protocol: as §1, §2

mu opioid receptor = mu opioid receptor (Rattus norvegicus, UniProt P33535); experiment: Radioligand binding assay for opioid receptor subtypes, 3H-DAMGO; details: read-out: IC50 3H-DAMGO (mu); rat brain, 3H-DAMGO 1 nM, 25° C., 1 hour
Protocol: as §1, §2

Structure (SMILES)	pIC50 (kappa opioid receptor)	pIC50 (delta opioid receptor)	pIC50 (mu opioid receptor)
CC(C)(CCCN1C(=O)c2ccccc2S1(=O)=O)N1CCC(n2c(=O)[nH]c3ccccc32)CC1	6.31	5.52	8.11
CCn1c(=O)n(C2CCN(C(C)(C)CCCN3C(=O)c4ccccc4S3(=O)=O)CC2)c2ccccc21	5.92	5.37	8.72
